In PubChem BioAssay AID1511 (Johns Hopkins Ion Channel Center, 2009):
The list shows a part of the results, in another mix than the full data. Activity calls are given as the source filed them.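 How the source made its calls: active means activation above the mean of controls blocked by dofetilide plus 5 SD; inactive means the rest.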
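Further: thallium influx through hERG after potassium depolarization seen as dye fluorescence rise.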

Chains of the proteins cited; added tags and fusions are not shown. Lines headed by an entry give the natural chain unless they say otherwise; changes in a name come on top.
UniProt Q12809: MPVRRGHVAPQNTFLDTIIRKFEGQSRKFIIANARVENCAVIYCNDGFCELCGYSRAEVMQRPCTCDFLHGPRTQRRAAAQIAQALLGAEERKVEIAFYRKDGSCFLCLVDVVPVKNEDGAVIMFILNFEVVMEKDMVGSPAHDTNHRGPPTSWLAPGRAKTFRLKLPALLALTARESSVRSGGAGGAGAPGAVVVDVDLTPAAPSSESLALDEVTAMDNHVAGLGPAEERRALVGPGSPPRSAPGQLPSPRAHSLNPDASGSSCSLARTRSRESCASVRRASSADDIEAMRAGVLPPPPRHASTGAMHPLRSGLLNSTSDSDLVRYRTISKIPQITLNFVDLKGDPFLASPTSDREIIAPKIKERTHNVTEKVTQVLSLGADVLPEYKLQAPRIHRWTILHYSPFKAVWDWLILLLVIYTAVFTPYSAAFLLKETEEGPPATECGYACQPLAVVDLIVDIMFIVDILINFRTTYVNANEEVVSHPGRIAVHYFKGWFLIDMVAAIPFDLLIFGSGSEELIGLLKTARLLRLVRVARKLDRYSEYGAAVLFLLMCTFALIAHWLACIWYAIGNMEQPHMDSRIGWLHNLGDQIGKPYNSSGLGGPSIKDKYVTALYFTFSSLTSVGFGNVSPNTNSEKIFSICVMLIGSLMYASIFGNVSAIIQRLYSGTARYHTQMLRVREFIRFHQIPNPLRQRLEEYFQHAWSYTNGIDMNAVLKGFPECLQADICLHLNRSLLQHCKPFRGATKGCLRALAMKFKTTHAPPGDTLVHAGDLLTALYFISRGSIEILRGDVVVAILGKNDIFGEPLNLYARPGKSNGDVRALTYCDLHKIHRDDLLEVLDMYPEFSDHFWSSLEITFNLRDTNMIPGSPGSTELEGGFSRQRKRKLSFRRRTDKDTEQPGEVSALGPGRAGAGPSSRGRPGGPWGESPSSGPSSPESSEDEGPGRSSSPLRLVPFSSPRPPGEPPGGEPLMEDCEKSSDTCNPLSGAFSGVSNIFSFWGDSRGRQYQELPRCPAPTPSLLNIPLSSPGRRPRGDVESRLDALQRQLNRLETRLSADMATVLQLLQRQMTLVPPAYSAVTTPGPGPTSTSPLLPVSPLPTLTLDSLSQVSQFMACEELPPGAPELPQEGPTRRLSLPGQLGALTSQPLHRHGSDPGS

These molecules were tested against Voltage-gated inwardly rectifying potassium channel KCNH2 (Homo sapiens) (UniProt Q12809) (assay: PubChem AID 1511). Conditions: CHO-hERG, FluxOR thallium flux, dofetilide IC70 present; at 10 µM; stronger effect = higher value.
For `O=C(OC1CN2CCC1CC2)c1cccc(Cl)c1` (centres undefined), the activation (rescue from dofetilide block), less the hit threshold was inactive: -2.57%. In the case of `C(Cc1nn[nH]n1)Cc1nn[nH]n1`, the activation (rescue from dofetilide block), less the hit threshold was inactive: -3.25%. For `Nc1ccc([As](=O)(O)c2ccc([N+](=O)[O-])cc2)cc1`, the activation (rescue from dofetilide block), less the hit threshold was inactive: -1.73%. In the case of `O=[As](O)(c1ccccc1)c1ccc(O)cc1`, the activation (rescue from dofetilide block), less the hit threshold was inactive: -4.07%. For `O=[N+]([O-])c1ncn(CCn2cnc([N+](=O)[O-])n2)n1`, the activation (rescue from dofetilide block), less the hit threshold was inactive: -6.83%. With `CC(=O)NC(SC(=S)N(C)C)C(Cl)(Cl)Cl` (centres undefined) the activation (rescue from dofetilide block), less the hit threshold was inactive: -11.5%. In the case of `O=[N+]([O-])c1ccc(O)c(/C=N/Nc2ccc([N+](=O)[O-])cc2[N+](=O)[O-])c1`, the activation (rescue from dofetilide block), less the hit threshold was inactive: -2.16%. With `O=P(Nc1nc2ccccc2s1)(c1ccccc1)c1ccccc1` the activation (rescue from dofetilide block), less the hit threshold was inactive: -8.94%. In the case of `C[C@H]1OP(=O)(Oc2ccccc2)[C@H](O)[C@H](O)[C@H]1N=[N+]=[N-]` (some centres undefined), the activation (rescue from dofetilide block), less the hit threshold was inactive: -7.01%. For `CN(C)C1(CNC(=O)c2ccc(Cl)c(S(N)(=O)=O)c2)CCCCC1`, the activation (rescue from dofetilide block), less the hit threshold was inactive: -1.45%. In the case of `O=P(Nc1ccccn1)(c1ccc(Br)cc1)c1ccc(Br)cc1`, the activation (rescue from dofetilide block), less the hit threshold was inactive: -10.8%. In the case of `COc1ccc(C[C@H](C)NC[C@@H](O)c2ccc(O)c(NC=O)c2)cc1`, the activation (rescue from dofetilide block), less the hit threshold was inactive: -8.01%. For `c1nnnn1CCn1cnnn1`, the activation (rescue from dofetilide block), less the hit threshold was inactive: -5.2%. For `O=P(Nc1nccs1)(c1ccccc1)c1ccccc1`, the activation (rescue from dofetilide block), less the hit threshold was inactive: -8.34%. With `CC(C)C(=O)NC(Sc1ccccc1)C(Cl)(Cl)Cl` (centres undefined) the activation (rescue from dofetilide block), less the hit threshold was inactive: -2.13%. With `CC(=O)Nc1ccc([As](=O)(O)O)c(O)c1` the activation (rescue from dofetilide block), less the hit threshold was inactive: -11.8%. In the case of `CC(=O)Nc1ccc(Oc2c([N+](=O)[O-])cc([N+](=O)[O-])cc2[N+](=O)[O-])cc1`, the activation (rescue from dofetilide block), less the hit threshold was inactive: -7.07%. For `C[C@H]1OP(=O)(Oc2ccccc2)C[C@@H]2O[C@@H]21` (some centres undefined), the activation (rescue from dofetilide block), less the hit threshold was inactive: -5.72%. `C[C@@H]1C=CCP(=O)(Oc2ccccc2)O1` (some centres undefined) was tested, and the activation (rescue from dofetilide block), less the hit threshold was inactive: -7.71%. For `CC(=O)c1ccc(N2CC2c2ccncc2)cc1` (centres undefined), the activation (rescue from dofetilide block), less the hit threshold was inactive: -6.17%. For `CC(C)(C)C(=O)NC(Sc1ccccc1)C(Cl)(Cl)Cl` (centres undefined), the activation (rescue from dofetilide block), less the hit threshold was inactive: -18%. `O=P1(Nc2nc3ccc(Cl)cc3s2)COc2ccccc2O1` (centres undefined) was tested, and the activation (rescue from dofetilide block), less the hit threshold was inactive: -6.35%. For `CCOc1ccc(C2=NCC(CBr)S2)cc1` (centres undefined), the activation (rescue from dofetilide block), less the hit threshold was inactive: -22.4%. In the case of `Cc1ccccc1OP(=O)(Nc1ccccn1)Oc1ccccc1C`, the activation (rescue from dofetilide block), less the hit threshold was inactive: -37%. With `CN(C)C(=O)Oc1noc2ccccc12` the activation (rescue from dofetilide block), less the hit threshold was inactive: -6.19%. With `O=C(OC1CN2CCC1CC2)c1ccccc1` (centres undefined) the activation (rescue from dofetilide block), less the hit threshold was inactive: -7.92%. In the case of `CCC(=O)N1C2C3N(C(=O)CC)C1C1N(C(=O)CC)C(C(N1C(=O)CC)N3C(=O)CC)N2C(=O)CC`, the activation (rescue from dofetilide block), less the hit threshold was inactive: -9.74%. In the case of `COC(=O)c1cc2c(s1)N=C(c1ccccc1)N(C)P2(=O)N1CCOCC1` (centres undefined), the activation (rescue from dofetilide block), less the hit threshold was inactive: -5.48%. `Cc1ccc(OP(=O)(Nc2ccccn2)Oc2ccc(C)cc2)cc1` was tested, and the activation (rescue from dofetilide block), less the hit threshold was inactive: -6.31%. For `CC(=O)NC(SC(=S)N(CC(C)C)CC(C)C)C(Cl)(Cl)Cl` (centres undefined), the activation (rescue from dofetilide block), less the hit threshold was inactive: -0.95%. For `c1ccc(-c2nn[nH]n2)c(-c2nn[nH]n2)c1`, the activation (rescue from dofetilide block), less the hit threshold was inactive: -2.79%. `CCOC(=O)NC(Sc1ccccc1)C(Cl)(Cl)Cl` (centres undefined) was tested, and the activation (rescue from dofetilide block), less the hit threshold was inactive: -4.72%. For `Cc1ccc(NP(=O)(Oc2cccc(C)c2)Oc2cccc(C)c2)nc1`, the activation (rescue from dofetilide block), less the hit threshold was inactive: -10.2%. In the case of `O=C(NC1CCS(=O)(=O)C1)NP(=S)(Oc1ccccc1)Oc1ccccc1` (centres undefined), the activation (rescue from dofetilide block), less the hit threshold was inactive: -3.95%. With `CCNC(=S)/N=C(\N)N[N+](=O)[O-]` the activation (rescue from dofetilide block), less the hit threshold was inactive: -9.67%. `Nc1cccc2ccc([As](=O)(O)O)cc12` was tested, and the activation (rescue from dofetilide block), less the hit threshold was inactive: -2.28%. For `CCN(N=Nc1nonc1N)c1nonc1N`, the activation (rescue from dofetilide block), less the hit threshold was inactive: -13%. In the case of `O=[N+]([O-])c1cc([N+](=O)[O-])c(CCN2CCOCC2)c([N+](=O)[O-])c1`, the activation (rescue from dofetilide block), less the hit threshold was inactive: -13.8%. With `Cc1cc(SC(NC(=O)c2ccc(F)cc2)C(Cl)(Cl)Cl)ncn1` (centres undefined) the activation (rescue from dofetilide block), less the hit threshold was inactive: -7.21%. `CCOP(=O)(Nc1ccccc1)OCC` was tested, and the activation (rescue from dofetilide block), less the hit threshold was inactive: -4.62%. `CN(C(=O)Cc1ccc(Cl)c(Cl)c1)[C@H]1CCCC[C@@H]1N1CCCC1` was tested, and the activation (rescue from dofetilide block), less the hit threshold was inactive: -4.79%. `Cc1ccc(NP(=O)(Oc2ccccc2F)Oc2ccccc2F)nc1` was tested, and the activation (rescue from dofetilide block), less the hit threshold was inactive: -2.3%. In the case of `O=P(Nc1nc2ccc(Cl)cc2s1)(c1ccccc1)c1ccccc1`, the activation (rescue from dofetilide block), less the hit threshold was inactive: -6.88%. For `CC(=O)Nc1ccc([As](=O)(O)O)cc1`, the activation (rescue from dofetilide block), less the hit threshold was inactive: -6.5%. For `O=C(O)c1ccccc1[As](=O)(O)O`, the activation (rescue from dofetilide block), less the hit threshold was inactive: -4.82%. In the case of `Oc1ccccc1CNc1ccccn1`, the activation (rescue from dofetilide block), less the hit threshold was inactive: -4.45%. `O=C(NC(Sc1ccncn1)C(Cl)(Cl)Cl)c1ccccc1` (centres undefined) was tested, and the activation (rescue from dofetilide block), less the hit threshold was inactive: -12.1%. In the case of `Cc1c2non([O-])c-2c(C)[n+](=O)[n+]1[O-]`, the activation (rescue from dofetilide block), less the hit threshold was inactive: -29.8%. `Nc1cc(N)c2nonc2c1[N+](=O)[O-]` was tested, and the activation (rescue from dofetilide block), less the hit threshold was inactive: -4.06%. In the case of `CC(C)CC(=O)NC(Sc1ccc(Cl)cc1)C(Cl)(Cl)Cl` (centres undefined), the activation (rescue from dofetilide block), less the hit threshold was inactive: -3.74%. `CN1CCCC(OC(=O)C(c2ccccc2)c2ccccc2)C1` (centres undefined) was tested, and the activation (rescue from dofetilide block), less the hit threshold was inactive: -7.2%. In the case of `Clc1ccc(Cl)c(NC2=NCC(CBr)S2)c1` (centres undefined), the activation (rescue from dofetilide block), less the hit threshold was inactive: -9.66%. For `COc1ccccc1OP(=O)(Nc1ccc(C)cn1)Oc1ccccc1OC`, the activation (rescue from dofetilide block), less the hit threshold was inactive: -8.8%. For `Cc1ccc(OP(=O)(Nc2nccs2)Oc2ccc(C)cc2)cc1`, the activation (rescue from dofetilide block), less the hit threshold was inactive: -3.1%. `Cc1ccc(N/C(=N/P(=O)(N2CCOCC2)N2CCOCC2)N2CCOCC2)cc1` was tested, and the activation (rescue from dofetilide block), less the hit threshold was inactive: -17.4%. With `NC(=O)c1cc([N+](=O)[O-])cc([N+](=O)[O-])c1N` the activation (rescue from dofetilide block), less the hit threshold was inactive: -3.96%. With `CC1CCN(C(=O)Oc2c(Cl)cc(Cl)c3cccnc23)CC1` the activation (rescue from dofetilide block), less the hit threshold was inactive: -7.04%. `CC(C)=N/N=C(\N)N[N+](=O)[O-]` was tested, and the activation (rescue from dofetilide block), less the hit threshold was inactive: -4.59%. `CN(C)C(=O)OCCc1n(C)cc[n+]1C` was tested, and the activation (rescue from dofetilide block), less the hit threshold was inactive: -4.12%. For `CCN(/C(=N/P(=O)(N1CCOCC1)N1CCOCC1)N1CCOCC1)c1ccc(OC)cc1`, the activation (rescue from dofetilide block), less the hit threshold was inactive: -4.84%. With `Nc1ccc([As](=O)(O)c2ccc(N)cc2)cc1` the activation (rescue from dofetilide block), less the hit threshold was inactive: -9.51%. In the case of `C[N+]1=C2C=CC=CC=C2SC12C([N+](=O)[O-])=CC([N+](=O)[O-])=C[C-]2[N+](=O)[O-]` (centres undefined), the activation (rescue from dofetilide block), less the hit threshold was inactive: -6.17%. With `Cc1ccc(NP(=O)(Oc2ccccc2)Oc2ccccc2)nc1` the activation (rescue from dofetilide block), less the hit threshold was inactive: -3.78%. In the case of `O=[N+]([O-])c1cc([N+](=O)[O-])c(CCNc2ccccc2)c([N+](=O)[O-])c1`, the activation (rescue from dofetilide block), less the hit threshold was inactive: -12.1%.
